Drawing on US8846746B2, “Pyrazole compound and pharmaceutical use thereof” (Japan Tobacco Inc., priority 2011, dated 2014), this text covers IC50 for 5 molecules.

The chains behind the UniProt entries cited, without tags or fusion partners.
UniProt P13866, whole entry: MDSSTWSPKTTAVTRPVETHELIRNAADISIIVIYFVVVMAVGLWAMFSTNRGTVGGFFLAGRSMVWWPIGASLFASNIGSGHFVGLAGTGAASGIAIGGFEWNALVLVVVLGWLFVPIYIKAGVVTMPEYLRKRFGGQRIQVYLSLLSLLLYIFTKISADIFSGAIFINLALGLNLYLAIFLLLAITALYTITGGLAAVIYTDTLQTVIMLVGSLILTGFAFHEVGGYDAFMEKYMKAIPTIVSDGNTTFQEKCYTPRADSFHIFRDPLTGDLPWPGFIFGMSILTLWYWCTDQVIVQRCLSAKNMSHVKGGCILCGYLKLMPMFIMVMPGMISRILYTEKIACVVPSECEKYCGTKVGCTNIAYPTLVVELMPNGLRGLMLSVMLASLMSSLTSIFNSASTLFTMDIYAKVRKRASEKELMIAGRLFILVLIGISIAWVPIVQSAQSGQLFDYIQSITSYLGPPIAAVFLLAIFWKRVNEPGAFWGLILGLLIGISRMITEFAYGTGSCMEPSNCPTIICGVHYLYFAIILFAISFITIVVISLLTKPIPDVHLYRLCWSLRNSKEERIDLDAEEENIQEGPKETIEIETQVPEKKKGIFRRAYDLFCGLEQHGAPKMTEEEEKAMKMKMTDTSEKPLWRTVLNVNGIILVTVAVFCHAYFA

The target in this test is human SGLT1 (Homo sapiens (Human), UniProt P13866). Briefly: SGLT1 inhibitory activity: 14C-AMG uptake into CHO-K1 cell line stably expressing human SGLT1. The class given is cell-based.
Setting [1] is: read-out: human SGLT1 IC50, CHO-K1 cells stably expressing human SGLT1.

Where two headings read alike, the source gives them in different places.

In general, IC50 refers to the concentration that inhibits the measured activity by half. On to `COCC(C)(C)c1cccc(-c2cc(NC(=O)[C@@H]3CNC(=O)C3)nn2-c2ccccc2)c1`, for which the IC50 under setting [1] was determined as 31 nM.
As for `O=C1C[C@H](C(=O)Nc2cc(-c3cccc(COCC(F)(F)F)c3)n(-c3cccc(O)c3)n2)CN1`, under setting [1], the IC50 was 37 nM.
`CCOC(C)(C)c1cccc(-c2cc(NC(=O)[C@@H]3CNC(=O)C3)nn2-c2ccccc2)c1`: under setting [1], the IC50 is 22 nM.
On the same count and under the same terms, next, `O=C1C[C@H](C(=O)Nc2cc(-c3cccc(COCC(F)(F)F)c3)n(-c3cccc(OCc4ccccc4)c3)n2)CN1`: 4.5 nM.
For `Cc1cccc(-n2nc(NC(=O)[C@H]3CNC(=O)C3)cc2-c2cccc(OC(F)(F)F)c2)c1`, the IC50 (read-out: human SGLT1 IC50, CHO-K1 cells expressing human SGLT1) worked out at 4.5 nM.
